The source of these data is patent US20230390406A1, “Star Polymer Drug Conjugates” (Vaccitech North America, Inc., priority 2020, published 2023).

The data set is described as follows: Turbidity (OD 490 nm) / solubility in PBS buffer at different pH. Type of data set: physicochemical. The source says: FIGS. 7 and 8 show turbidity for different polymer arms in PBS buffer over a pH range of 5.5 to 7.5.
Compounds 105-109 were designed to be negatively charged and soluble in aqueous buffer at physiologic pH, pH 7.4; however, at reduced pH, e.g., within an acidic tumor environment, the conjugate base of the carboxylic acid becomes protonated leading to reduced charge as well as reduced solubility of the polymer arms, which can be observed by measuring turbidity (OD at 490 nm). The turbidity of Compounds 100 and 105-109 in PBS buffer at pH ranging from 5.0 to 8.0 was conducted by first dissolving compounds in DMSO as a 40 mg/mL stock solution, then diluted to 0.5 mg/mL in 1×PBS titrated that was titrated with either HCl or NaOH to adjust the pH.
Compounds 110-131 were first characterized by UV-Vis (OD 490 nm) and DLS (dynamic light scattering) to assess their solubility and surface charge (zeta potential) in PBS buffer at physiologic pH. The sample preparation and characterization process were the same as described for Compound 109. […] Upon introduction of D2 comprising amphiphilic or hydrophobic drug molecules, i.e., Naph, 2BXy and diABZI, the polymer arm remained anionic across the DMBA mol % range. […]

Regarding “N3-poly[(HPMA-co-Ma-b-Ala-2BXy)-b-(HPMA-co-Ma-propyl-NH2)]-Pg [Compound 68]”, the “Turbidity at pH 6.5” value stood at 0.039 and the “Turbidity at pH 7.4” value amounted to 0.039.
